Yeast mating assay 1: variants of the scFv Ab-14

The measurements come from Engelhart et al. 2022 (doi:10.1038/s41597-022-01779-4) through the FLAb antibody collection.

The target is the same throughout: PDVDLGDISGINAS, from the HR2 region of SARS-CoV-2 spike.

Each scFv is VH, a 15-residue (Gly4Ser)3 linker, VL, as in the parent Ab-14, and differs from it in the CDRs of the heavy chain only.
VH: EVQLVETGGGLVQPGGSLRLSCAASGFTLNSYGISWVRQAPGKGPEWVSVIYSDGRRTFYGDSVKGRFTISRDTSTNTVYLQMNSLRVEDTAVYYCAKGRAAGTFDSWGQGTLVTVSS
VL: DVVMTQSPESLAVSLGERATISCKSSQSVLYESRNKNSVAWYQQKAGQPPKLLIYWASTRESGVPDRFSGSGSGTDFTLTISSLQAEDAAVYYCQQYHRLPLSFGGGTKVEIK

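The starting antibody came from a phage panning campaign against this peptide. Library AAYL49 holds single substitutions and randomly drawn double and triple substitutions in the CDRs. In AlphaSeq, yeast of one mating type display the scFv and yeast of the other type display the target. Pairs that bind mate more often; barcode pairs of the diploids are counted by sequencing. A regression on co-assayed BCL2-family reference pairs converts the normalised counts of each replicate to an apparent Kd. There are three technical replicates.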

Substitutions are numbered in sequence along the VH above, starting at 1 (not Kabat).
The read-out is the apparent dissociation constant on a log10 scale (nM): the lower, the stronger.
An entry "ND" has no value in the source: the pair was not observed among the diploids in that replicate. This suggests poor binding but is not conclusive.
Parent in this assay: reference entry 0.65, copy in this library 4.11 (one replicate of three).
As a blank, each scFv also met three strains without target: over library AAYL49, 15% of these pairings were detected, typically at 4.06 and seldom below 2.83. The control count says in how many pairings with the empty strains this scFv gave a signal, with their mean in brackets.

| changes | log10 Kd, replicates | control signals |
|---|---|---|
| I34H S63E V64I | ND / ND / ND | 2/9 (3.75) |
| R56T T58V R100S | 3.49 / 2.21 / 4.20 | 0/9 |
| N30L S31Y I34V | 2.00 / 2.39 / 1.90 | 0/9 |
| L29W S53A D62Q | 2.86 / 2.76 / ND | 0/9 |
| L29D Y60M T104N | ND / ND / ND | 0/9 |
| V50P T58L F105P | ND / 4.43 / ND | 0/9 |
| L29T V64E K65T | ND / ND / ND | 0/9 |
| G26P I51L K65M | ND / ND / ND | 0/9 |
| T28S A102W | 2.28 / 1.85 / 2.32 | 4/9 (4.70) |
| T28D G33E S53H | ND / ND / ND | 0/9 |
| N30C R57Q R100S | ND / ND / ND | 0/9 |
| F27L I34T | ND / 2.94 / 3.62 | 2/9 (3.26) |
| A102P T104Q D106I | ND / 3.79 / ND | 4/9 (4.02) |
| S31D G33S T58W | 4.08 / ND / 3.87 | 0/9 |
| G26I G55C K65A | 4.43 / ND / ND | 2/9 (3.22) |
| G33F S35A S53V | ND / ND / ND | 0/9 |
| G33S T104N | ND / 3.44 / ND | 3/9 (4.02) |
| S31K R57L Y60C | ND / 4.13 / ND | 5/9 (4.22) |
| F59D Y60A T104Q | ND / ND / ND | 0/9 |
| S35I D54I R100T | 4.36 / ND / 5.35 | 2/9 (4.47) |
| T28D G99V A101M | ND / 3.23 / ND | 1/9 (3.00) |
| F27M G33N Y60D | ND / ND / ND | 2/9 (4.30) |
| D54G R57L Y60T | ND / ND / 3.55 | 1/9 (3.45) |
| S31Y G55I R56K | ND / ND / ND | 1/9 (3.95) |
| L29C | ND / 3.32 / ND | 2/9 (3.09) |
| R56C T58D T104Y | 4.91 / ND / 5.24 | 3/9 (4.92) |
| I51T D62E G103E | ND / ND / ND | 1/9 (2.71) |
| Y32I F59A K65M | 2.09 / 2.27 / 2.07 | 3/9 (4.27) |
| L29Q Y52W V64G | ND / ND / ND | 2/9 (4.36) |
| L29E I34M | ND / ND / ND | 0/9 |
| F27W T58Q K65A | ND / ND / ND | 0/9 |
| R57S G103D D106P | 1.08 / 1.42 / 1.98 | 0/9 |
| T58A S63G T104K | 1.15 / 1.84 / 1.75 | 0/9 |
| T28N F59C A101R | 1.49 / 1.53 / 1.82 | 1/9 (5.15) |
| G55S G103T T104G | ND / ND / ND | 0/9 |
| G26Q S31R A102C | ND / ND / ND | 0/9 |
| G26Q V50P Y52K | ND / ND / ND | 2/9 (4.00) |
| S31V Y52Q R56W | ND / ND / ND | 0/9 |
| V50C Y60Q | ND / ND / ND | 0/9 |
| Y32A I34E S107K | ND / 3.51 / 4.31 | 7/9 (5.08) |
| G26V T28K D106S | 4.85 / ND / ND | 0/9 |
| S31D R57F G61Q | 3.87 / 5.07 / 2.87 | 1/9 (3.79) |
| G26E Y60R | ND / ND / ND | 0/9 |
| D54A G61A G103F | ND / ND / ND | 1/9 (3.23) |
| G33C I51M R56D | ND / ND / ND | 1/9 (3.39) |
| I34Q D62P A101Q | 2.36 / ND / ND | 0/9 |
| R100D | ND / ND / ND | 1/9 (3.87) |

The last 4 entries again:

changes,"log10 Kd, replicates",control signals
D54A G61A G103F,ND / ND / ND,1/9 (3.23)
G33C I51M R56D,ND / ND / ND,1/9 (3.39)
I34Q D62P A101Q,2.36 / ND / ND,0/9
R100D,ND / ND / ND,1/9 (3.87)